## Apparent affinities of Ab-91 variants for a coronavirus HR2 peptide

All variants were tested on one target, the spike HR2 peptide PDVDLGDISGINAS (SARS-CoV-2).

Ab-91 is the parent antibody, in scFv form: VL, then the linker GGGGSGGGGSGGGGS, then VH. The light chain is unchanged in all variants.
VL: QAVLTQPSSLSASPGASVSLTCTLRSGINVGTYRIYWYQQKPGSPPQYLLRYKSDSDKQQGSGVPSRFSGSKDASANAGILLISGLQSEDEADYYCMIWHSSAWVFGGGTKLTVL
VH: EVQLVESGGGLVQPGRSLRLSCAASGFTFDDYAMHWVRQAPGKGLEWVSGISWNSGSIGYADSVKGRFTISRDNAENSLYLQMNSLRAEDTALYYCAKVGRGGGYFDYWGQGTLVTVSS

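The parent was found by panning a naive human phage display library on the peptide. AAYL51 was designed without a model: most single CDR substitutions and a random sample of double and triple ones. In AlphaSeq, yeast of one mating type display the scFv and yeast of the other type display the target. The frequency of each diploid, read from paired DNA barcodes, reflects how well the two displayed proteins bind. Each replicate has its own calibration line, from reference interactions of the BCL2 family. There are three technical replicates.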

Each variant is given by its three heavy chain CDRs, as the data file delimits them; those of the parent are GFTFDDYAMH, GISWNSGSIGYADSVK, VGRGGGYFDY. Scale: log10 of Kd in nM, estimated from mating counts; low values are strong binders. The mean shown is taken over the replicates in which the pair was detected. Where no diploid with the target was found in any replicate, the entry reads "nd": below detection, most likely a poor binder, though not proof of it. In this assay the parent's reference entry averaged 1.86; its copy inside this library read 0.88. Nonspecific signal, from three strains lacking the peptide, appeared in 21% of pairings of library AAYL51, centred on 4.54 (5% of these signals below 3.26); values are not corrected for it.

| CDR-H1 | CDR-H2 | CDR-H3 | mean log10 Kd (nM) | seen in |
|---|---|---|---|---|
| GFEFDDYAMH | GISWNSGSQGYADSVK | VGQGGGYFDY | 1.65 | 3 of 3 |
| GFTFHDYAMH | GISWNSGSIGYADSVK | VVRGGGYVDY | 2.90 | 3 of 3 |
| GFTFDDYAMH | IISWNSGSIGWADSVK | VGRGFGYFDY | 4.66 | 1 of 3 |
| GFTFDDYAMH | GIRWNSGSHGYADSVK | VCRGGGYFDY | 5.04 | 3 of 3 |
| GFTFDDYAMH | GISRNSTSIGYADSVK | VTRGGGYFDY | 5.12 | 1 of 3 |
| GFTFDEYAMH | GISWNSGSIGYAIIVK | VGRGGGYFDY | nd | 0 of 3 |
| VFTFDDYAMH | GISWNSGSEGYADSVK | VGDGGGYFDY | nd | 0 of 3 |
| GFTFDDYAMH | GISWNSGMIGYADSVK | VGRGCGYFLY | 4.97 | 1 of 3 |
| GFTFDDYAMV | GISWNSSSIGYADSVK | KGRGGGYFDY | 5.02 | 3 of 3 |
| GFTFDDYAMH | GWSWNSGSCGYADSWK | VGRGGGYFDY | nd | 0 of 3 |
| GHTFDDYAMH | GISWNSGSIGYADTVK | VGRFGGYFDY | nd | 0 of 3 |
| GFTFDDYAMH | GIQWNSKSIGYADSVK | VGRLGGYFDY | 3.92 | 2 of 3 |
| GFTFDMYAWH | EISWNSGSIGYADSVK | VGRGGGYFDY | nd | 0 of 3 |
| GLTFDYYAMH | GISKNSGSIGYADSVK | VGRGGGYFDY | 5.73 | 1 of 3 |
| GFTFDDYAMQ | GISWNSGSIGYGDSVK | VGRGGIYFDY | 4.68 | 2 of 3 |
| GFTFDDYAMH | NISWNSGSIGYADSVK | NGRLGGYFDY | nd | 0 of 3 |
| GFTFRDYAMH | GISWNSGSIGYADSVK | VGRGGVYFDY | nd | 0 of 3 |
| GFTFDDYAMH | GICINSGSIGYADSVK | VGRGGGFFDY | nd | 0 of 3 |
| GFTFDDYAKH | GISWISGSIGYADLVK | VGRGGGYFDY | nd | 0 of 3 |
| GFTFDDYAMH | GISWKSGSIGYADSVA | VGRGGGYFDT | 3.11 | 3 of 3 |
| GFTFDDYAMH | GISWNSGSIGYADSVK | VGCGWGYFDY | 2.80 | 3 of 3 |
| GFTFDDYAMH | QITWNSGSLGYADSVK | VGRGGGYFDY | 3.19 | 1 of 3 |
| GFWFDDYAMH | GIMWNSCSIGYADSVK | VGRGGGYFDY | 4.37 | 2 of 3 |
| FFTFDDYTMH | GISWNSGSIGYADSVK | VGRGGGYYDY | nd | 0 of 3 |
| GFTFDSYAMH | VISWNSGSIGYADEVK | VGRGGGYFDY | nd | 0 of 3 |
| GFTFDDYAMH | GISWNSPSIKYADMVK | VGRGGGYFDY | nd | 0 of 3 |
| GFTFDDYAMH | GIQWNSGSIGYADSVK | VGRGGGYFAY | 4.37 | 3 of 3 |
| GFTFDDYATH | GISWNSESIGYADKVK | VGRGGGYFDY | nd | 0 of 3 |
| GFTFDDYAMK | GISWNSGSIGYADSVK | VGRGGCYFDY | 3.89 | 1 of 3 |
| GFTFDDYAMH | GISWNSGSIGCADSVK | VGRGGGYSDY | nd | 0 of 3 |
| GRTFDDYAMH | GISWNEGGIGYADSVK | VGRGGGYFDY | 5.24 | 3 of 3 |

Continued, with the values leading:

| mean log10 Kd (nM) | seen in | CDR-H1 | CDR-H2 | CDR-H3 |
|---|---|---|---|---|
| nd | 0 of 3 | GFTFDDYLMH | GISWNSGSIGHVDSVK | VGRGGGYFDY |
| nd | 0 of 3 | GFTFDRYAMH | GYSWNSGSIGYADSVK | VGRGGGYFDY |
| nd | 0 of 3 | GFTLDSYAMH | GISWNSGSIGYADSVK | VGRGGGRFDY |
| 5.41 | 3 of 3 | GFTFDDYMMH | GISWNSGSIGYMDSVK | PGRGGGYFDY |
| 4.81 | 2 of 3 | GFTFDWYAMH | GISWNSGSIGYADSWK | VGRSGGYFDY |
| 4.06 | 2 of 3 | GTTFDDYAMH | GISWNSNSIGYADSVK | VGRGGGFFDY |
| nd | 0 of 3 | LFTFDDYAMP | GISWNSGSIGYADDVK | VGRGGGYFDY |
| 0.45 | 3 of 3 | GFKFDDTAMH | GISWNSGSIGYADWVK | VGRGGGYFDY |
| 5.18 | 1 of 3 | GFTFDDYNMQ | GISWNSGSIGYAFSVK | VGRGGGYFDY |
| 5.50 | 1 of 3 | GFTPDDYAMH | DISRNSGSIGYADSVK | VGRGGGYFDY |
| 4.03 | 3 of 3 | GFTFEDYAMH | GQSWNSGSIGYADSVK | VGRGGGYFDY |
| nd | 0 of 3 | GFHFDDYAMH | GISWNSGSIGYADSVN | VGRGGGYIDY |
| 2.28 | 1 of 3 | GFTFDDYAMD | GISWNSGSIDYADSVK | VGRGGGYFDY |
| nd | 0 of 3 | GFTFDDYAHH | GISWNKGSIGYAVSVK | VGRGGGYFDY |
| 3.35 | 1 of 3 | GFTFDDYAQH | GISWNSGSIGYADSVK | VGRGGHYFCY |
| nd | 0 of 3 | GFTFDDYAMH | GISWNLGSIGYFDSVK | VGRGGGKFDY |
| nd | 0 of 3 | GFTFDDYAMY | GISWNSGSIGFADSVK | VGRGGGYRDY |
| 4.99 | 2 of 3 | GFTFDDYAMH | GQSWNSGSIGYAASVK | VGRGGGYTDY |
| 4.06 | 1 of 3 | GFTFHDYAMH | GISWNSGSIQYYDSVK | VGRGGGYFDY |
| 5.81 | 2 of 3 | GFTFDDYAMH | GISSNSGSIGYADSVP | VGRGGGYFDY |
| 4.82 | 3 of 3 | GFTFDDKAMH | GISWNVGSVGYADSVK | VGRGGGYFDY |
| 5.38 | 1 of 3 | GFTFDDYAMH | GISWYSGSRGYADSVK | VGVGGGYFDY |
| nd | 0 of 3 | GFTFDDYAYH | GISQNSGTIGYADSVK | VGRGGGYFDY |
| nd | 0 of 3 | GFTFDDYAMH | GISWLSGSIGYADSVK | VGRAGGYFCY |
| nd | 0 of 3 | GFTFDDYAMH | QISWNSGQNGYADSVK | VGRGGGYFDY |
| 3.71 | 1 of 3 | GFTFEDYAMH | GISWNSGSIGYDDSVK | VGRGGGYFDN |
| nd | 0 of 3 | TDTFDDYAMC | GISWNSGSIGYADSVK | VGRGGGYFDY |
| nd | 0 of 3 | KFTFDIYAMH | GISWNSGSIEYADSVK | VGRGGGYFDY |
| nd | 0 of 3 | GFTADDYAMH | GISWNSPSIGYADSVK | VGRGGGLFDY |
| 3.98 | 1 of 3 | GFTFDDYTMH | GISWNSGVIGYADGVK | VGRGGGYFDY |
| nd | 0 of 3 | GFTFDDYAMH | GISWNSGRIEYADSVC | VGRGGGYFDY |

The closing 5 entries, repeated:

| CDR-H1 | CDR-H2 | CDR-H3 | mean log10 Kd (nM) | seen in |
|---|---|---|---|---|
| TDTFDDYAMC | GISWNSGSIGYADSVK | VGRGGGYFDY | nd | 0 of 3 |
| KFTFDIYAMH | GISWNSGSIEYADSVK | VGRGGGYFDY | nd | 0 of 3 |
| GFTADDYAMH | GISWNSPSIGYADSVK | VGRGGGLFDY | nd | 0 of 3 |
| GFTFDDYTMH | GISWNSGVIGYADGVK | VGRGGGYFDY | 3.98 | 1 of 3 |
| GFTFDDYAMH | GISWNSGRIEYADSVC | VGRGGGYFDY | nd | 0 of 3 |

From the AlphaSeq antibody data of Engelhart et al. 2022 (doi:10.1038/s41597-022-01779-4), copy in the FLAb collection.